The CC50 is the concentration at which the toxic effect on the cells reaches its halfway point.

The test system of the data set is MT-2 human T-cells. The experiment in a line: Cytotoxicity, inhibition of MT-2 cell growth. The settings on record: read-out: cytotoxicity (CC50); Table 4; human MT-2 cells.
On to `Cc1cc(C)c(Nc2cc(OCCCN3CCOCC3)nc(Nc3ccc(C#N)cc3)n2)c(C)c1` [Compound 5b, 4-((4-(mesitylamino)-6-(3-morpholinopropoxy)pyrimidin-2-yl)amino)benzonitrile], for which the CC50 came out at 3.1 µM.
With `N#Cc1ccc(Nc2nc(Nc3c(F)cc(C4CC4)cc3F)nc(OCCCN3CCOCC3)n2)cc1` [Compound 6h, 4-((4-((4-cyclopropyl-2,6-difluorophenyl)amino)-6-(3-morpholinopropoxy)-1,3,5-triazin-2-yl)amino)benzonitrile], the CC50 was determined as 2.2 µM.
In the case of `Cc1cc(C#N)cc(C)c1Oc1nc(Nc2ccc(C#N)cc2)nc(N)c1Br` [etravirine], the half-maximal cytotoxic concentration (CC50) came out at 11 µM.
Regarding `CCc1cc(F)c(Nc2nc(Nc3ccc(C#N)cc3)nc(OCCCN3CCOCC3)n2)c(F)c1` [Compound 6f, 4-((4-((4-ethyl-2,6-difluorophenyl)amino)-6-(3-morpholinopropoxy)-1,3,5-triazin-2-yl)amino)benzonitrile], the CC50 was 13 µM.
Regarding `Cc1cc(/C=C/C#N)cc(C)c1Nc1nc(Nc2ccc(C#N)cc2)nc(OCCCN2CCOCC2)n1` [Compound 6d, (E)-4-((4-((4-(2-cyanovinyl)-2,6-dimethylphenyl)amino)-6-(3-morpholinopropoxy)-1,3,5-triazin-2-yl)amino)benzonitrile], the CC50 stood at 4.5 µM.
`Cc1cc(C)c(Nc2nc(Nc3ccc(C#N)cc3)nc(OCCN3CCOCC3)n2)c(C)c1` [Compound 6a, 4-((4-(mesitylamino)-6-(2-morpholinoethoxy)-1,3,5-triazin-2-yl)amino)benzonitrile]: the CC50 was found to be 95 µM.
On to `Cc1cc(C)c(Nc2nc(Nc3ccc(C#N)cc3)nc(OCCC3CCNCC3)n2)c(C)c1` [Compound 12a, 4-((4-(mesitylamino)-6-(2-(piperidin-4-yl)ethoxy)-1,3,5-triazin-2-yl)amino)benzonitrile], for which the CC50 worked out at 4.2 µM.
Regarding `CC(C)c1cc(F)c(Nc2nc(Nc3ccc(C#N)cc3)nc(OCCCN3CCOCC3)n2)c(F)c1` [Compound 6g, 4-((4-((2,6-difluoro-4-isopropylphenyl)amino)-6-(3-morpholinopropoxy)-1,3,5-triazin-2-yl)amino)benzonitrile], the CC50 turned out to be 1.5 µM.

For the origin of these results see patent publication US9914709B2 (dated 2018).
